From patent publication US20150057316A1, “NOVEL SULFONATE-BASED TRIMEBUTINE SALTS” (GICARE PHARMA INC., priority 2012, published 2015) come the findings set out here.

The test system of one data set is Caco-2 cells. As to the kind of experiment: Caco-2 bidirectional permeability. The data set is classed as in vitro ADME, human. The note with it: class from Papp A-B; listed as 3-thiocarbamoylbenzenesulfonate moiety. The text has this: Such a procedure helps understanding the suitability of the compound for oral dosing by measuring the rate of transport of the molecule across the Caco-2 cells, which have characteristics that resemble intestinal epithelial cells. Transport in both directions (apical to basolateral (A-B) and basolateral to apical (B-A)) across the cell monolayer was monitored over a 2-hr time period in order to evaluate the efflux ratio, an indicator of whether the compound undergoes significant active efflux or not. The permeability coefficient (Papp) is calculated from the equation: […]
Where dQ/dt is the rate of permeation of the drug across the cells, Co is the donor compartment concentration at time zero and A is the area of the cell monolayer. Co is obtained from analysis of the dosing solution at the start of the experiment. The analysis method used was LCMS quantification.
A permeability of (Papp A-B)<1.0×10^−6 cm/s is considered low, whereas a permeability of (Papp A-B)>1.0×10^−6 cm/s is considered high. A significant efflux is generally associated with an efflux ratio above 3.0 and a (Papp B-A)>1.0×10^−6 cm/s in these assay conditions.
(In general: Caco-2 cells form a polarised layer with tight junctions and transporters.)

The nature of data set [1]: quantification of counter-ion and metabolites in urine and feces of rats. The data set is classed as in vivo. The conditions noted are these: 500 mg/kg p.o., 48 hr collection. As to the method:
A preliminary toxicological evaluation of the compound was done in 250-300 g male Sprague-Dawley rats. Animals were randomized into one of three dosing group, i.e. 250, 500 or 1,000 mg/kg administered by oral gavage. Following administration of the test article, animals were observed hourly for the first 8 hr post-dosing for clinical signs and twice daily thereafter until termination on Day 7. Three animals per group were sacrificed by exsanguination under general anesthesia at 24-hr post dosing or on Day 7 and a gross necropsy was performed in all animals. Additionally, all three rats having received the 500 mg/kg dose and scheduled for sacrifice on Day 7 were placed in individual metabolic cages immediately following test article administration, in order to collect feces and urine during 48 hr. Blood samples were collected terminally from each rat for hematology and serum chemistry evaluation.
After proper urine and feces samples preparation, trimebutine 3-thiocarbamoyl-benzenesulfonate and its two metabolites were assayed by HPLC-MS/MS (ESI-), in MRM mode. Calibration curves were prepared for each analyte, in both matrices (diluted blank urine and diluted blank feces).

Take `NC(=S)c1cccc(S(=O)(=O)O)c1`: in the data set with Caco-2 cells, the Permeability result is given as “low”. Also, the “recovery of unchanged 3-thiocarbamoylbenzenesulfonate counter-ion in urine and feces” value in data set [1] was “quasi-quantitative recovery”.
